Assay [1] has as its target T1, human TREM1 on cells (human, UniProt Q9NP99 21-234).
T1 construct: Some reporter cells carry a human TREM1/CD3 zeta fusion instead; also called CHO-huT1; CHO-hT1
In words: FACS, human neutrophils.

Amino acid sequences for entries named in this document (tags omitted). Chains listed by the source or under a name are the forms on record and can include a tag or linker. Residues count along the entry.
UniProt Q9NP99, 21-234: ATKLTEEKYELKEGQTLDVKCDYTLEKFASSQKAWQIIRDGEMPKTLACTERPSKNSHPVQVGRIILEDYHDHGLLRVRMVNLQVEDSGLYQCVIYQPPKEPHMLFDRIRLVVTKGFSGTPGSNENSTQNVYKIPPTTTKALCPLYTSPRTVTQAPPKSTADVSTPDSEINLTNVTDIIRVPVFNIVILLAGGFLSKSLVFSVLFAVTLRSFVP
UniProt Q9NP99, 21-205 limits assumed, form in doubt: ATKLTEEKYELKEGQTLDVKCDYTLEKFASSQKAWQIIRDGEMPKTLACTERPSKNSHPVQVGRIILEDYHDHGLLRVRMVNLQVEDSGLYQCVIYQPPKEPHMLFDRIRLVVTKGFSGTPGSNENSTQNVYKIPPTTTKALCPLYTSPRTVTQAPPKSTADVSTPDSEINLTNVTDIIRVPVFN

In a further assay the target is human TREM1 (human, UniProt Q9NP99 21-205, limits assumed). The experiment in a line: IgG, monovalent; method and antigen form not stated.
A further assay addresses T2, mouse TREM1 on CHO cells (mouse, UniProt Q9JKE2 21-230).
T2 construct: also called CHO-mT1
T2 sequence: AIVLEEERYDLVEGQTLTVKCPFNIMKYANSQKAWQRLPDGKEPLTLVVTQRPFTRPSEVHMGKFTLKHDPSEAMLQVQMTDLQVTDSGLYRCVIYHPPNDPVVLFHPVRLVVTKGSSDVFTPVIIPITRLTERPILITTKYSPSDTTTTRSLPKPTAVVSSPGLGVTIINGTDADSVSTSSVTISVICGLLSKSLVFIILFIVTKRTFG
The experiment in a line: FACS, CHO mouse TREM1. On the technique in general: Flow cytometry measures light scatter and fluorescence of single cells or particles in a stream.

Assay [2] addresses T1, human TREM1 on cells. In words: FACS ligand blocking on CHO-huTREM1, 10 ug/mL IgG; competitor hPGLYRP1/PGN-BS.
Assay [3] deals with T1, human TREM1 on cells. The experiment in a line: FACS, CHO human TREM1.
Another assay concerns the target T3, mouse TREM2 on BWZ cells (mouse, UniProt Q99NH8 19-227).
T3 construct: whole, on cells; also called BWZ Mouse TREM2
T3 sequence (looked up): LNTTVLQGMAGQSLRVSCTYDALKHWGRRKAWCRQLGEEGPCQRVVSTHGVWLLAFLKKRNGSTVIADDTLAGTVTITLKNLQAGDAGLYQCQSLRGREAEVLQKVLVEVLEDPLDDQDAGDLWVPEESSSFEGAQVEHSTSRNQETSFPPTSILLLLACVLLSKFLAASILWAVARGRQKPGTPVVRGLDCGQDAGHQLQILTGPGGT
In words: FACS, BWZ mouse TREM2.

The target in the next assay is T4, human TREM2 on BWZ cells (human, UniProt Q9NZC2 19-230).
T4 construct: whole, on cells; not tied to the cell line; also called BWZ Human TREM2
T4 sequence (looked up): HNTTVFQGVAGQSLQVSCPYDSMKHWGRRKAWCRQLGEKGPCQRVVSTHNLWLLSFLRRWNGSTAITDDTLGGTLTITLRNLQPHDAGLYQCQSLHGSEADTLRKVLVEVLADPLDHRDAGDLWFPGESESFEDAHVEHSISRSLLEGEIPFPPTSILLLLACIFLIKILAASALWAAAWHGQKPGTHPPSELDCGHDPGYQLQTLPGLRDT
The experiment in a line: FACS, BWZ human TREM2.

A value given as a limit tells only on which side of the number the result lay.

B1: T1-65 (antibody, IgG1, V domains shown)
VH: QLQLQESGPGLVKPSETLSLTCTVSGGSISSSDYYWGWIRQPPGKGLEWIGSIYYSGSTYYNPSLKSRVTISVDTSKNQFSLKLSSVTAADTAVYYCARDSGQYTGSLDVWGQGTMVTVSS
VL: not shown
notes: huIgG1; also called TI-65; ADI-19141
By Kd is commonly meant the concentration at which binding is half-saturated. A lower Kd goes with tighter binding. By koff is commonly meant the first-order rate constant of dissociation. For orientation: kon means the rate constant with which the complex forms. With B1, the “FOB Fold Over Background” value with human TREM1 on cells [1] came to 2.2 fold; with mouse TREM1 on CHO cells it was 1.4 fold; in the assay with human TREM1 on cells [3] it was 400 fold; with mouse TREM2 on BWZ cells, 1.4 fold; in the assay with human TREM2 on BWZ cells, 1 fold. In addition, the equilibrium dissociation constant (Kd) with human TREM1 is 0.271 µM. Further, the koff in the assay with human TREM1 turned out to be 0.0285 s⁻¹. The molecule also registered a kon with human TREM1 of 105000 M⁻¹ s⁻¹. Further, the “% ligand binding blocked” value in the assay with human TREM1 on cells [2] was no less than 50%.

B2: T1-78 (antibody, IgG1, V domains shown)
VH: QLQLQESGPGLVKPSETLSLTCTVSGGSISSSSYYWGWIRQPPGKGLEWIGSIYYSGSTYYNPSLKSRVTISVDTSKNQFSLKLSSVTAADTAVYYCARDLGQYEGYFDLWGRGTLVTVSS
VL: not shown
notes: huIgG1; also called TI-78; ADI-19155
B2: the “FOB Fold Over Background” value in the assay with human TREM1 on cells [1] is 6.2 fold; with mouse TREM1 on CHO cells, 1.1 fold; with human TREM1 on cells [3], 405 fold; in the assay with mouse TREM2 on BWZ cells, 1.2 fold; with human TREM2 on BWZ cells, 1.2 fold. For the same molecule, the Kd with human TREM1 worked out at 0.0464 µM. For the same molecule, in the assay with human TREM1, the koff turned out to be 0.0074 s⁻¹. Further, the kon with human TREM1 is 160000 M⁻¹ s⁻¹. The “% ligand binding blocked” value with human TREM1 on cells [2] is no less than 50%.

B3: T1-41 (antibody, IgG1, V domains shown)
VH: not shown
VL: DIQLTQSPSSVSASVGDRVTITCRASQDISSWLAWYQQKPGKAPKLLIYAASSLQSGVPSRFSGSGSGTDFTLTISSLQPEDFATYYCQQAVIHPPYTFGGGTKVEIK
notes: huIgG1; also called TI-41; ADI-19115
Regarding B3, the “FOB Fold Over Background” value was determined as 2.6 fold in the assay with human TREM1 on cells [1]; 0.6 fold with mouse TREM1 on CHO cells; 445 fold with human TREM1 on cells [3]; 1.6 fold with mouse TREM2 on BWZ cells; 1 fold with human TREM2 on BWZ cells. The molecule further had a Kd with human TREM1 of 0.0163 µM. The same molecule showed a koff with human TREM1 of 0.00558 s⁻¹. For the same molecule, in the assay with human TREM1, the association rate constant (kon) amounted to 343000 M⁻¹ s⁻¹. Further, the “% ligand binding blocked” value with human TREM1 on cells [2] was no less than 85%.

B4: T1-59 (antibody, IgG1, V domains shown)
VH: QVQLQESGPGLVKPSETLSLTCAVSGYSISSGYYWAWIRQPPGKGLEWIGSIYHSGSTYYNPSLKSRVTISVDTSKNQFSLKLSSVTAADTAVYYCARDLGGYEGAFDPWGQGTLVTVSS
VL: not shown
notes: huIgG1; also called TI-59; ADI-19135
Turning to B4, the “FOB Fold Over Background” value was determined as 5.3 fold with human TREM1 on cells [1]; 1.5 fold with mouse TREM1 on CHO cells; 432 fold with human TREM1 on cells [3]; 1.2 fold with mouse TREM2 on BWZ cells; 0.9 fold with human TREM2 on BWZ cells. The molecule further had a Kd with human TREM1 of 0.0232 µM. For the same molecule, the koff with human TREM1 amounted to 0.00301 s⁻¹. The same molecule came in with a kon with human TREM1 of 130000 M⁻¹ s⁻¹. For the same molecule, the “% ligand binding blocked” value with human TREM1 on cells [2] was no less than 50%.

B5: T1-40 (antibody, IgG1, V domains shown)
VH: EVQLVESGGGLVKPGGSLRLSCAASGFTFSSYSMNWVRQAPGKGLEWVSSISSSSSYIYYADSVKGRFTISRDNAKNSLYLQMNSLRAEDTAVYYCARTRIDDSFDIWGQGTMVTVSS
VL: not shown
notes: huIgG1; also called TI-40; ADI-19114
As to B5, the “FOB Fold Over Background” value with human TREM1 on cells [1] turned out to be 3.5 fold; in the assay with mouse TREM1 on CHO cells it was 51 fold; with human TREM1 on cells [3], 458 fold; with mouse TREM2 on BWZ cells, 1.1 fold; with human TREM2 on BWZ cells, 0.7 fold. In the assay with human TREM1, this molecule showed a Kd of 0.0219 µM. In the assay with human TREM1, this molecule displayed a koff of 0.00183 s⁻¹. This molecule displayed a kon with human TREM1 of 83700 M⁻¹ s⁻¹. The “% ligand binding blocked” value with human TREM1 on cells [2] was no less than 50%.

B6: T1-79 (antibody, IgG1, V domains shown)
VH: QLQLQESGPGLVKPSETLSLTCTVSGGSISSSSYYWGWIRQPPGKGLEWIGSIYYSGSTYYNPSLKSRVTISVDTSKNQFSLKLSSVTAADTAVYYCARLGDGYRIWADYWGQGTLVTVSS
VL: not shown
notes: huIgG1; also called TI-79; ADI-19156
As for B6, the “FOB Fold Over Background” value was found to be 4.5 fold in the assay with human TREM1 on cells [1]; 1.1 fold with mouse TREM1 on CHO cells; 426 fold with human TREM1 on cells [3]; 1.2 fold with mouse TREM2 on BWZ cells; 1.8 fold with human TREM2 on BWZ cells. The same molecule gave a dissociation constant Kd in the assay with human TREM1 of 0.04 µM. The molecule further showed a koff with human TREM1 of 0.00478 s⁻¹. This molecule returned a kon with human TREM1 of 119000 M⁻¹ s⁻¹. Moreover, the “% ligand binding blocked” value in the assay with human TREM1 on cells [2] was no less than 50%.

The values are drawn from patent US11472877 (Alector, dated 2022).
